Test results: patent US20080269247A1, “Chemokine Inhibiting Piperazine Derivatives and Their Use to Treat Myocarditis” (priority 2003, published 2008)
Several values for one entry are separate records, joined by “and”; a condition that tells them apart may be missing. Equal values may be shown once.

System: Male Lewis rats
Conditions: rat, in vivo

Q: Which results are given for `C[C@@H]1CN(Cc2ccc(F)cc2)CCN1C(=O)COc1ccc(Cl)cc1NC(N)=O` [(2R)-1-((4-chloro-2-(ureido)phenoxy)methyl)carbonyl-2-methyl-4-(4-fluorobenzyl)piperazine]?
A: Severity of EAM: reduced the severity of EAM; Cardiac function, FS (echocardiogram) (sc, 50 mg/kg): 46.7±3.6% and 39.4±4.1%
